# Source: ChEMBL document CHEMBL1926544, “Tyrosine-based 1-(S)-[3-hydroxy-2-(phosphonomethoxy)propyl]cytosine and -adenine ((S)-HPMPC and (S)-HPMPA) prodrugs: synthesis, stability, antiviral activity, and in vivo transport studies” (J Med Chem, 2011)
# How the values were obtained:
# HFF = assay: Cytotoxicity against HFF cells after 48 hrs by visual cytotoxicity observation assay; assay type: cell-based; conditions: Homo sapiens
# [1] = Half life in Sprague-Dawley rat intestinal homogenate at pH 6.5 by LC/MS analysis; assay type: ADME, tissue-based, Intestine
# Outline: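 Sprague-Dawley rat intestine homogenized in 0.1 M phosphate buffer pH 6.5 and centrifuged at 14,000 × g. Compound stock (1 mg/ml, 400 µL) mixed with 260 µL buffer and 140 µL homogenate, 37 °C. Samples taken over time, quenched with methanol, centrifuged, supernatant analysed by LC-MS (C18, acetonitrile gradient in ammonium acetate pH 5.5). Run separately for each phosphorus diastereomer.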
# [2] = Half life in phosphate buffer at pH 6.5 at 37 degC by LC/MS analysis; assay type: physicochemical
# Outline: (§1)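 Compound dissolved from 1 mg/ml aqueous stock into preheated 200 mM phosphate buffer (pH 6.5 or 7.4), 37 °C water bath. Aliquots of 25 µL taken over time and analysed by LC-MS (C18, 0–30% acetonitrile in ammonium acetate pH 5.5, ESI positive, UV 260/274 nm). Half-lives determined for each diastereomer.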
# [3] = Half life in phosphate buffer at pH 7.4 at 37 degC assessed as half life by LC/MS analysis; assay type: physicochemical; outline: as §1
SMILES,IC50 (HFF) [µM],half-life [1] [h],half-life [2] [h],half-life [3] [h]
COC(=O)[C@H](Cc1ccc(OP2(=O)CO[C@@H](Cn3ccc(N)nc3=O)CO2)cc1)NC(=O)[C@@H](N)C(C)C (mixture of isomers),> 100,–,–,–
COC(=O)[C@H](Cc1ccc(O[P@@]2(=O)CO[C@@H](Cn3ccc(N)nc3=O)CO2)cc1)NC(=O)[C@@H](N)C(C)C,–,< 0.5,5.77,1.02
COC(=O)[C@H](Cc1ccc(O[P@]2(=O)CO[C@@H](Cn3ccc(N)nc3=O)CO2)cc1)NC(=O)[C@@H](N)C(C)C,–,< 0.5,1.12,0.2
